Source: PubChem (National Center for Advancing Translational Sciences (NCATS))
miR-21 reporter: raises the signal of a miR-21 reporter | HeLa miR-21 FLuc reporter, luciferase, 48 h | Potency, µM (doses to about 38.3 µM), without a hit: at the top dose reporter change, positive = more light | 340,000 tested, under 10 active | AID 2288; active = well fitted rising curve with a large enough effect; inconclusive = small, poorly fitted or top-dose-only effect; inactive = no such curve, though single readings can be large or run the other way;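 note: % of control where 0% means no effect; miR-21 action dims this reporter so a rising signal means less miR-21 action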
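Using DMEM plus 10% FBS, HeLa miR-21-FLuc cells are incubated with test compounds (final up to about 40uM) for 48 hours; firefly luciferase signal is then imaged following reagent-mediated lysis.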
TDP1 cell noCPT: qHTS for Inhibitors of human tyrosyl-DNA phosphodiesterase 1 (TDP1): qHTS in cells in absence of CPT; DT40 Tdp1-/- hTDP1 cells, no CPT, ATP luminescence, 48 h; Potency, µM (highest dose often 46.2 µM), without a hit: at the top dose activity change, negative = growth inhibition, usual class: inhibitors; 420,000 tested, 15% active; AID 686978, 2013; further: potency means the concentration at half of the fitted maximal effect; on the % scale 0 is the no-effect control and ±100 the full control effect; nearly all actives have a fitted effect of over 55% in size
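No-CPT arm: Tdp1-/-;hTDP1 DT40 cells (400/well) plus compounds, incubated ≥48 hr at 37 °C. Readout CellTiter-Glo luminescence.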
TDP1 cell CPT: DT40-hTDP1 cell growth loss with CPT; chicken DT40 Tdp1-/-;hTDP1 cells + 20 nM CPT, ATP luminescence, 48 h; Potency, µM (highest dose often 46.2 µM), for inactives: at the top dose activity change, negative = growth inhibition, usual class: inhibitors; 420,000 tested, 12% active; further: potency means the concentration at half of the fitted maximal effect; on the % scale 0 is the no-effect control and ±100 the full control effect; nearly all actives have a fitted effect of over 55% in size
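Cell growth measured by CellTiter-Glo luminescence after a minimum 48 h, 37 C compound exposure with 20 nM CPT in Tdp1-knockout DT40 cells stably expressing hTDP1, seeded 400/well; qHTS titration format.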
uPA generation: inhibitors of cell surface uPA generation. cell surface uPA generation assay, qHTS. Potency, µM (top dose mostly 38.3 µM), for inactives: at the top dose activity change, negative = inhibition, usual class: inhibitors. 330,000 tested, 0.31% active. AID 540303; active means well fitted inhibition curve with a large enough effect; inconclusive means small, poorly fitted or top-dose-only effect; inactive means no such curve, though single readings can be large or run the other way; tested in mouse RAW 264.7 cells; further: potency means the concentration at half of the fitted maximal effect; on the % scale 0 is the no-effect control and ±100 the full control effect; nearly all actives have a fitted effect of over 55% in size
TDP1 inh: blocks human tyrosyl-DNA phosphodiesterase 1 | Q9NUW8 | recombinant TDP1, AlphaScreen DNA substrate cleavage | Potency, µM (highest dose often 130 µM), for inactives: at the top dose activity change, negative = inhibition, hits mostly inhibitors | 350,000 tested, 0.28% active; further: potency means the concentration at half of the fitted maximal effect; on the % scale 0 is the no-effect control and ±100 the full control effect; nearly all actives have a fitted effect of over 40% in size
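AlphaScreen read-out: signal falls as enzyme removes the 3' tyrosine-FITC from a 5'-biotinylated DNA oligo (15 nM, 5 min, RT). Enzyme was E. coli-made recombinant Tdp1 at 1 nM, exposed to compound for 15 min beforehand; beads 10 ug/ml, 10 min.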
* = called active by the depositor; [ ] = another dose, or the depositor's remark. Rows were chosen to be rich in hits. Some 16% of all compounds tested hit in one or more screens of this group. Unless noted, the call rests on the fitted dose curve; in most records, active means well fitted curve in the direction sought with a large enough effect; inconclusive means small, poorly fitted or top-dose-only effect, or another doubt; inactive means no such curve, though single readings can be large; an effect the other way counts as inactive or inconclusive.

For COc1ccc(CCNc2oc(COc3ccc(F)cc3)nc2C#N)cc1 the results were miR-21 reporter -2%, TDP1 cell noCPT inconclusive, TDP1 cell CPT 18µM*, uPA generation 1% and TDP1 inh 7%.
For CCOC(=O)C1=CN(Cc2ccco2)S(=O)(=O)N(C)C1c1ccc2ccccc2c1 (configuration not stated) the results were TDP1 cell noCPT inconclusive, TDP1 cell CPT 21µM*, uPA generation -21% and TDP1 inh 0%[56.1 µM].
Screening CC(=O)c1ccc(S(=O)(=O)N(CCCO)Cc2cc3cc4c(cc3[nH]c2=O)OCCO4)cc1 returned miR-21 reporter -6%, TDP1 cell noCPT -24%, TDP1 cell CPT -26% and uPA generation 0%.
`COc1ccc(C(=O)COC(=O)CCn2c(C)csc2=O)c(OC)c1` gave TDP1 cell noCPT 4% and TDP1 cell CPT -5%.
For CCN(C(=O)Cc1ccc(Br)cc1)C1CCCCC1 the results were miR-21 reporter -11%, TDP1 cell noCPT inconclusive, TDP1 cell CPT 21µM*, uPA generation -1% and TDP1 inh 2%.
Screening CCN(C(=O)CN1C(=O)c2ccccc2S1(=O)=O)C1CCCCC1 returned TDP1 cell noCPT -2%, TDP1 cell CPT 4%, uPA generation -2% and TDP1 inh 2%.
Screening CCNc1nc(N)nc(-c2cc(Cl)ccc2O)n1 returned miR-21 reporter -43%, TDP1 cell noCPT 21µM*, TDP1 cell CPT inconclusive, uPA generation -11% and TDP1 inh 3%.
Screening COc1ccc(O)c(C(=O)c2cnn(-c3ccccc3)c2)c1 returned miR-21 reporter -56%, TDP1 cell noCPT -10%, TDP1 cell CPT -1%, uPA generation 1% and TDP1 inh 8%.
Screening CCCCNc1nc(N)nc(-c2cc(Cl)ccc2O)n1 returned miR-21 reporter -72%, TDP1 cell noCPT 16µM*, TDP1 cell CPT 18µM*, uPA generation -5% and TDP1 inh 3%.
Screening CCNc1nc(NCC)nc(-n2cc(C(=O)c3cc(Cl)ccc3O)cn2)n1 returned TDP1 cell noCPT 10µM*, TDP1 cell CPT inconclusive and TDP1 inh 1%.

Ordered by SMILES length (descending): part of the list above
For CCOC(=O)C1=CN(Cc2ccco2)S(=O)(=O)N(C)C1c1ccc2ccccc2c1 (configuration not stated) the results were TDP1 cell noCPT inconclusive, TDP1 cell CPT 21µM*, uPA generation -21% and TDP1 inh 0%[56.1 µM].
Screening CCNc1nc(NCC)nc(-n2cc(C(=O)c3cc(Cl)ccc3O)cn2)n1 returned TDP1 cell noCPT 10µM*, TDP1 cell CPT inconclusive and TDP1 inh 1%.
Screening CCN(C(=O)CN1C(=O)c2ccccc2S1(=O)=O)C1CCCCC1 returned TDP1 cell noCPT -2%, TDP1 cell CPT 4%, uPA generation -2% and TDP1 inh 2%.
Screening COc1ccc(O)c(C(=O)c2cnn(-c3ccccc3)c2)c1 returned miR-21 reporter -56%, TDP1 cell noCPT -10%, TDP1 cell CPT -1%, uPA generation 1% and TDP1 inh 8%.

(continued)
`CCCN(CCC)c1nc(N)nc(-c2cc(Cl)ccc2OC)n1` gave miR-21 reporter -5%, TDP1 cell noCPT inconclusive, TDP1 cell CPT inconclusive, uPA generation 7% and TDP1 inh 3%.
O=C(c1ccc(F)cc1)N1CCN(C2CCCCC2)CC1 was read as miR-21 reporter -1%, TDP1 cell noCPT 8%, TDP1 cell CPT 5%, uPA generation -5% and TDP1 inh 6%.
C=CCN1[C@@H](Cc2ccccc2)COCCS1(=O)=O was read as TDP1 cell noCPT -24%, TDP1 cell CPT -20% and uPA generation 6%.
COc1cccc(-c2nc(SCc3ccc(C)cc3)n3[nH]c(=O)cc3n2)c1 was read as miR-21 reporter -20%, TDP1 cell noCPT 16µM*, TDP1 cell CPT 18µM* and TDP1 inh 5%.
`C=CCc1ccccc1OCCSc1nc(-c2ccccc2F)nc2cc(=O)[nH]n12` gave miR-21 reporter -28%, TDP1 cell noCPT 21µM*, TDP1 cell CPT 16µM* and TDP1 inh inconclusive.
`CC(C)(C)c1ccc(-c2nc(SCCCOc3ccccc3)n3[nH]c(=O)cc3n2)cc1` gave miR-21 reporter 3%, TDP1 cell noCPT inconclusive, TDP1 cell CPT inconclusive and TDP1 inh 0%.
Screening COc1ccc(-c2nc(SCCOc3ccccc3Cl)n3[nH]c(=O)cc3n2)cc1 returned miR-21 reporter -33%, TDP1 cell noCPT inconclusive, TDP1 cell CPT 21µM* and TDP1 inh 5%.
For Cc1ccn2cc(-c3ccc(NC(=O)c4ccco4)cc3)nc2c1 the results were miR-21 reporter -38%, TDP1 cell noCPT inconclusive, TDP1 cell CPT inconclusive, uPA generation -5% and TDP1 inh 5%.
Screening NC(=O)CSc1ncc2c(n1)-c1ccccc1N(Cc1ccc(F)cc1)S2(=O)=O returned miR-21 reporter -6%, TDP1 cell noCPT -14%, TDP1 cell CPT -24% and TDP1 inh 3%.
`C#CCCCO/N=C1/C[C@@H](O)[C@@H](O)[C@@H]2[C@@H]3C(=O)N(C[C@@H]4CCCO4)C(=O)[C@H]3CC[C@@H]12` gave TDP1 inh 5%[21 µM].
For O=C(Nc1ccc(O)c2c(=O)cc(-c3cccc(Cl)c3)oc12)c1cccc(Cl)c1 the results were miR-21 reporter -1%, TDP1 cell noCPT 8.2µM*, TDP1 cell CPT 7.3µM* and uPA generation -16%.
`COc1ccc(C(=O)Nc2ccc(O)c3c(=O)cc(-c4cccc(Cl)c4)oc23)cc1` gave miR-21 reporter -3%, TDP1 cell noCPT -19%, TDP1 cell CPT -17% and uPA generation -16%.
Screening CC(C)(C)c1ccc(C(=O)Nc2ccc(O)c3c(=O)cc(-c4cccc(Cl)c4)oc23)cc1 returned miR-21 reporter 2%, TDP1 cell noCPT 7.3µM*, TDP1 cell CPT 5.8µM* and uPA generation -4%.
For CCOc1ccc(NS(=O)(=O)c2cc(NC(=O)c3ccc(C)cc3)ccc2Cl)cc1 the results were miR-21 reporter 22%, TDP1 cell noCPT 2.6µM*, TDP1 cell CPT 3.7µM*, uPA generation -6% and TDP1 inh 0%.
Screening CCOc1ccc(Oc2ccc(NS(=O)(=O)c3cc(C(=O)O)ccc3Cl)cc2)cc1 returned TDP1 cell noCPT 20%, TDP1 cell CPT -7%, uPA generation -3% and TDP1 inh 1%.
`CCOc1ccc(C(=O)Nc2cccc(NC(=O)c3ccc(Cl)cc3Cl)c2)cc1` gave miR-21 reporter -1%, TDP1 cell noCPT 21µM*, TDP1 cell CPT inconclusive and TDP1 inh 0%[12.3 µM].
Screening Cc1cc(NC(=O)COC(=O)COc2ccc3c(c2)CCC3)no1 returned miR-21 reporter -5%, TDP1 cell noCPT -11%, TDP1 cell CPT -13%, uPA generation 6% and TDP1 inh 1%.
O=C(/C=C\c1ccc(O)c(O)c1)O[C@@H]1C[C@](O)(C(=O)O)C[C@@H](O)[C@@H]1O was read as TDP1 inh 12%[21 µM].
Screening CCCCNc1cc(NC(C)=O)cc2cc(OC)c(OC)cc12 returned miR-21 reporter 7%, TDP1 cell noCPT inconclusive, TDP1 cell CPT 18µM*, uPA generation -3% and TDP1 inh 3%.
`COc1cc2cc(NC(C)=O)cc(NCc3ccccc3)c2cc1OC` gave miR-21 reporter 4%, TDP1 cell noCPT -17%, TDP1 cell CPT 33% and uPA generation -4%.
`COc1ccc(/C=C2\SC(=S)N(CCC(=O)N3CCCCC3)C2=O)cc1` gave miR-21 reporter 6%, TDP1 cell noCPT inconclusive, TDP1 cell CPT inconclusive, uPA generation 1% and TDP1 inh 8%.
